{"sequences": {"note": "Amino acid sequences for entries named in this document (tags omitted). Residues count along the entry.", "UniProt Q86GC8, 37-702": "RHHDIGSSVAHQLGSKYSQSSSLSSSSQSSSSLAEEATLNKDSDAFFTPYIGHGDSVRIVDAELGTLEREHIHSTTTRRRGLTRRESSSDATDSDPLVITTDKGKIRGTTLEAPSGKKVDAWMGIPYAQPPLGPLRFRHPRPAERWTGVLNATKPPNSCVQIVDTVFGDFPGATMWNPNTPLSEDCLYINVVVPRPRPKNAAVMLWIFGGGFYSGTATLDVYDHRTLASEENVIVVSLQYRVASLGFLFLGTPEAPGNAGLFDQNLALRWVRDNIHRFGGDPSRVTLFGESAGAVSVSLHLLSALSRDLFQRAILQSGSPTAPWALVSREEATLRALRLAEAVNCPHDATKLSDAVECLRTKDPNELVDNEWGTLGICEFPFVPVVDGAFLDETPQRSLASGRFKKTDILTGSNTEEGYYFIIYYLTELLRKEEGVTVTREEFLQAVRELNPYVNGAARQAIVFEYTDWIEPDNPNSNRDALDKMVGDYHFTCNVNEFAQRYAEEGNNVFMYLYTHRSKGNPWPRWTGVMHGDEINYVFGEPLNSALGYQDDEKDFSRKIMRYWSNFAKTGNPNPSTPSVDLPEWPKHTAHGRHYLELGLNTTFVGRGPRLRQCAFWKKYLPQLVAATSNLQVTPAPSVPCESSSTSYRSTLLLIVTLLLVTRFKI"}, "source": "paper PMC3466212", "about": "“Novel AChE Inhibitors for Sustainable Insecticide Resistance Management” (PLoS ONE, 2012)", "target": "WT AChE1 (Culex pipiens, UniProt Q86GC8)", "test": "AChE assay (Ellman), dose-response on recombinant WT AChE1", "assay_type": "biochemical", "design": "made in house; host or cells: Drosophila S2 cells"}
{"molecule": "CCOP(=O)(OCC)Oc1ccc([N+](=O)[O-])cc1", "note": "[Paraoxon, reference compound]", "values": [{"measurement": "IC50", "value": 170, "unit": "nM"}]}
{"molecule": "CCOP(=O)(OCC)Oc1nc(Cl)c(Cl)cc1Cl", "note": "[Chlorpyrifos-oxon, reference compound]", "values": [{"measurement": "IC50", "value": 10, "unit": "nM"}]}
